How the values were obtained:
Daoy HTB-186 cell line = assay: MTT proliferation assay, Daoy medulloblastoma cells; assay type: cell-based, human; details: 10^-13 or 10^-8 M combined with temozolomide, Cisplatin, etoposide or Vincristin
Method: (§1) Human medulloblastoma cell line, Daoy was purchased from ATCCC, UW-228 was obtained from the courtesy of Professor Silber (Univerity of Washington, Seattle, Wash., USA).
(§2) Daoy and UW-228-2 cell lines were maintained in culture medium (each 500 ml Minimum Essential Medium Eagle, Alpha Modification (M8042, Sigma, St Louis, USA) with 50 ml FCS (Gibco), 40 mg Gentamicin (Sandoz), 5 ml sodium-pyruvate (S8636, Sigma, St Louis, USA), 5 ml non-essential-amino acid solution (M7145, Sigma, St Louis, USA), 10 ml L-glutamin (Sigma, St Louis, USA) at 37° C. in humified 5% CO2.
(§3) In each well 3×10^3 Daoy or UW-228-2 cells were seeded in 96-well plates (Sarstedt), solved in 100 μl of its own medium with 10% FCS. 24 hours after seeding, cells were treated for 72 hours by drugs solved in further 100 μl medium. […]
(§4) Cell proliferation was evaluated by MTT (3-(4,5-Dimethylthiazol-2-yl)-2,5-diphenyltetrazolium bromide) assay (M5655, Sigma) after 72-hour treatment by the method described in manufacturer's protocol.

The chains behind the UniProt entries cited, without tags or fusion partners.
UniProt P19643, whole entry: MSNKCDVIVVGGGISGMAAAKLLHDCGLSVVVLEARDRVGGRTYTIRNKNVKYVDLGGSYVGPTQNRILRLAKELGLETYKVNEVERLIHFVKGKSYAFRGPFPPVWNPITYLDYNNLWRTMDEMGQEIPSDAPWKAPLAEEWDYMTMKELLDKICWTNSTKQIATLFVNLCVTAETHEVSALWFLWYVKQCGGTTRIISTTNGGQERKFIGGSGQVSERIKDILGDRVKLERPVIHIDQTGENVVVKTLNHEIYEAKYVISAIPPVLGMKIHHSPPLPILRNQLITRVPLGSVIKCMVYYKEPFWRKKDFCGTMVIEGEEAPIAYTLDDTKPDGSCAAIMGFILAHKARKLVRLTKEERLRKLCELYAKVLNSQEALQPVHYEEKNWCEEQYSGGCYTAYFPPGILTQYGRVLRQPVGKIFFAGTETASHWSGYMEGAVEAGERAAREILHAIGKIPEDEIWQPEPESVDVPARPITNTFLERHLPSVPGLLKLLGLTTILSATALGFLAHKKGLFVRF

UW-228-2 cell line = assay: MTT proliferation assay, UW-228-2 medulloblastoma cells; assay type: cell-based, human; details: UW-228-2, 10^-13 or 10^-8 M combined with temozolomide, Cisplatin, etoposide or Vincristin
Method: as §1, §2, §3, §4

MAO-B = target: T1, MAO-B (Rattus norvegicus, UniProt P19643); details: 0.25 mg/kg, earlier longevity studies; cited from earlier work
T1 construct: from tissue; host or cells: brain, in vivo dosing

## C#CCN(C)[C@H](C)Cc1ccccc1 [(−)-Deprenyl, (R)—N-methyl-N-(1-phenylpropan-2-yl)prop-2-yn-1-amine, reference compound]
Daoy HTB-186 cell line
  effectiveness of tumor-cell proliferation inhibiting agents in combination: did not change the effectiveness
UW-228-2 cell line
  effectiveness of tumor-cell proliferation inhibiting agents in combination: did not change the effectiveness
MAO-B
  MAO-B activity in the brain: completely blocks
